Our source for the IC50 and Shift values is patent US8569292B2, “Cyclic inhibitors of 11β-hydroxysteroid dehydrogenase 1” (Vitae Pharmaceuticals, Inc., priority 2008, dated 2013).

The chains behind the UniProt entries cited, without tags or fusion partners. Where a name states a change or a piece, a line headed by the entry shows the natural chain unless it says otherwise.
UniProt P28845: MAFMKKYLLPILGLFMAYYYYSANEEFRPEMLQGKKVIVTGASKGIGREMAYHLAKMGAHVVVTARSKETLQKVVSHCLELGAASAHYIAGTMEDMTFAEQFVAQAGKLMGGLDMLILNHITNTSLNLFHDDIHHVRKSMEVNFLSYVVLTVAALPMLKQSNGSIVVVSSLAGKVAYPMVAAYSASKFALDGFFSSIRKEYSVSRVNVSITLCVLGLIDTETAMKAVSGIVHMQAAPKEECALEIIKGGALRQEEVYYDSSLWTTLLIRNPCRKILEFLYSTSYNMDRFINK
UniProt P11712, whole entry: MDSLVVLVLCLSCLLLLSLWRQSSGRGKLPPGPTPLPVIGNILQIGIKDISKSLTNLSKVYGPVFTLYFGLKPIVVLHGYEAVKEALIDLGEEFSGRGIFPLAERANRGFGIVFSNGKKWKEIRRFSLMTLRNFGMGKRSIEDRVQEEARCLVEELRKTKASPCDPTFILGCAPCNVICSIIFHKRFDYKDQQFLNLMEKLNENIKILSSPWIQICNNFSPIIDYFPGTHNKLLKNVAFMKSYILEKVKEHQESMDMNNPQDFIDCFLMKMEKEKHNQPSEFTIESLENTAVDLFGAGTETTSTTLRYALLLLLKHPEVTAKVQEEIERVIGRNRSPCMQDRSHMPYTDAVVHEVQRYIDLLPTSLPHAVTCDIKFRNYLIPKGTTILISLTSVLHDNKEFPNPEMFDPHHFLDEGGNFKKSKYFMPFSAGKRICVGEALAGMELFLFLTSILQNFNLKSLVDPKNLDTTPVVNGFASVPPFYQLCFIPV

A value given as a limit tells only on which side of the number the result lay.

For assay [1], the target named is T1, 11β-HSD1 (Homo sapiens, UniProt P28845). Kind of assay: biochemical.
Assay [2] concerns the target T1, 11β-HSD1. Briefly: Biological Test Example 4: microsomal 11β-HSD1 in the presence of 50% human plasma.
The next assay addresses CYP2C9 (Homo sapiens, UniProt P11712). Briefly: biochemical.

In the case of `C[C@@H](c1ccc(-c2cccnc2)cc1)N1CC[C@](CCNS(C)(=O)=O)(c2ccccc2)OC1=O` [EXAMPLE 55, N-(2-((S)-2-oxo-6-phenyl-3-((S)-1-(4-(pyridin-3-yl)phenyl)ethyl)-1,3-oxazinan-6-yl)ethyl)methanesulfonamide], the IC50 – broadly, the concentration that gives 50% inhibition – is 1.5 nM against 11β-HSD1 [1] (Biological Test Example 1 IC50 (nM)); under 100 nM at 11β-HSD1 [1] (IC50 Range, Biological Test Example 1); 8.3 nM at 11β-HSD1 [2]. Moreover, the Shift at 11β-HSD1 [2] (IC50 in Test Example 4 divided by IC50 in Test Example 1) was found to be 5.6.
On CYP2C9, `C[C@@H](c1ccc(-c2cccnc2)cc1)N1CC[C@](CCCO)(c2ccc(F)cc2)OC1=O` [EXAMPLE 197, (R)-6-(4-fluorophenyl)-6-(3-hydroxypropyl)-3-((S)-1-(4-(pyridin-3-yl)phenyl)ethyl)-1,3-oxazinan-2-one] displayed an IC50 of 14300 nM.
